ALDH1A1 inh = inhibitors of human aldehyde dehydrogenase 1A1; P00352; Purified ALDH1A1, NADH fluorescence, propionaldehyde substrate; Potency, µM (series often up to 75.3 µM), without a hit: top-dose activity, negative = inhibition, hits mostly inhibitors; actives 7.3% (n = 220,000); AID 1030; active = well fitted inhibition curve with a large enough effect, not every such curve was filed as active; inconclusive = small, poorly fitted or top-dose-only effect, or another doubt; inactive = no such curve, though single readings can be large or run the other way;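 note: potency is the fitted concentration of half-maximal effect; plate controls were no enzyme wells and a reference inhibitor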
miR-21 FLuc = raises the signal of a miR-21 reporter | HeLa miR-21 FLuc reporter, luciferase, 48 h | 340,000 tested, under 10 active | Potency, µM (titrated, usually from 38.3 µM), inactives show at the highest dose reporter change, positive = more light; active = well fitted rising curve with a large enough effect; inconclusive = small, poorly fitted or top-dose-only effect; inactive = no such curve, though single readings can be large or run the other way;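 further: % of control where 0% means no effect; miR-21 action dims this reporter so a rising signal means less miR-21 action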
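HeLa cells stably expressing CMV-driven firefly luciferase with a downstream miR-21 binding sequence, endogenously expressing miR-21, were treated with titrations (up to about 40uM final) for 48 hours at 37 degree Celsius. Luciferase luminescence was read after lysis.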
Sfp inh = inhibitors of Bacillus subtilis Sfp phosphopantetheinyl transferase. Q9F4F7. Biochemical Sfp PPTase activity, qHTS. Potency, µM, inactives show max response, negative = inhibition, most hits filed as inhibitors. 3.5% of 310,000 active. AID 1490; active = well fitted inhibition curve with a large enough effect; inconclusive = small, poorly fitted or top-dose-only effect, or another doubt; inactive = no such curve, though single readings can be large or run the other way;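 also: the enzyme is Sfp with the accession as filed and its product quenches rhodamine fluorescence; potency is read from the fitted curve at half-maximal effect; 0% = enzyme reaction without inhibitor and -100% = no enzyme wells; top concentration of the series not given in the record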
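With Hepes-Na pH 7.6 buffer containing 10 mM MgCl2, Sfp (15 nM) modified BHQ-2-YbbR (12.5 uM) using rhodamine-CoA (5 uM). Two reads 30 minutes apart at 525/598 nm yielded each well's rate.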
G9a inh = blocks human histone lysine methyltransferase G9a | Q96KQ7 | G9a H3K9 monomethylation, AlphaScreen, 2 h | Potency, µM (doses to about 102 µM), without a hit: top-dose activity, negative = inhibition, most hits filed as inhibitors | actives 8.8% (n = 350,000); note: potency is the fitted concentration of half-maximal effect; % is set by controls: 0 for no effect and ±100 for the full control effect; nearly all actives have a fitted effect of over 75% in size
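Step 1: enzyme (final 20 nM) with compound, 15 min RT. Step 2: substrate peptide 500 nM and SAM 20 uM, 2 h RT. Step 3: anti-H3K9me1 antibody and AlphaScreen beads, 10 min, then plate read.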
KDM4E inh = blocks human JMJD2E demethylase activity | JMJD2E catalytic domain, FDH-coupled NADH fluorescence (FDH is formaldehyde dehydrogenase) | Potency, µM (doses to about 57.1 µM), for inactives: at the top dose activity change, negative = inhibition, actives largely listed as inhibitors | actives 1.6% (n = 230,000); active = well fitted inhibition curve with a large enough effect, not every such curve was filed as active; inconclusive = small, poorly fitted or top-dose-only effect, or another doubt; inactive = no such curve, though single readings can be large or run the other way;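 note: potency is the fitted concentration of half-maximal effect; 0% = wells with enzyme and -100% = buffer wells without enzyme; nearly all actives have a fitted effect of over 50% in size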
Lamin A splicing = LMNA splicing modulation. HeLa LMNA splicing GFP/RFP minigene ratio, 48 h. Potency, µM (titrated, usually from 46.1 µM), without a hit: at the top dose ratio change, negative = inhibition, actives largely listed as inhibitors. actives 0.01% (n = 200,000); active = well fitted inhibition curve with a large enough effect in the signal ratio, with a control signal flat, not every such curve was filed as active; inconclusive = small, poorly fitted or top-dose-only effect, or effect the other way, or a change in a side signal; the % refers to the signal ratio; note: potency is the fitted concentration of half-maximal effect; % is set by controls: 0 for no effect and ±100 for the full control effect
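S3 HeLa stable clones carrying a lamin A-EGFP splicing minigene plus DsRed2 were seeded at 600 cells/well in Opti-MEM with 2% FBS, pin-dosed and incubated 48 h at 37°C. Acumen cytometry (488 nm) gave the GFP/RFP total-intensity ratio.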
* marks the source's active call; other numbers are inactive results; [ ] = another dose, or the depositor's remark. Rows were chosen to be rich in hits. Some 13% of all compounds tested hit in one or more screens of this group. Unless noted, calls come from the whole dose curve; as a rule, active = well fitted curve in the direction sought with a large enough effect; inconclusive = small, poorly fitted or top-dose-only effect, or another doubt; inactive = no such curve, though single readings can be large; an effect the other way counts as inactive or inconclusive.

How did Cc1nnc(SC(C)C(=O)Nc2ccc3c(c2)OCCO3)s1 (stereo not drawn) do in these assays?
ALDH1A1 inh: 0%; miR-21 FLuc: -8%; Sfp inh: inconclusive; G9a inh: inconclusive; KDM4E inh: 1%; Lamin A splicing: -8%

What do the screens show for `CC(C(=O)Nc1ccc2c(c1)OCO2)N1CCN(C)CC1` (stereo not drawn)?
ALDH1A1 inh: inconclusive; miR-21 FLuc: 0%; Sfp inh: inconclusive; G9a inh: 14µM*; KDM4E inh: inconclusive

Results for CC(Sc1ccc2c(c1)OCCO2)C(=O)Nc1ccc2c(c1)OCO2 (stereo not drawn) ?
ALDH1A1 inh: 10µM*; miR-21 FLuc: -10%; Sfp inh: 8%; G9a inh: -7%[59 µM]; KDM4E inh: 2%; Lamin A splicing: inconclusive

What do the screens show for `CC(C(=O)Nc1cccc(S(=O)(=O)N2CCOCC2)c1)N1CCN(C)CC1` (stereo not drawn)?
miR-21 FLuc: -3%; Sfp inh: 16%; G9a inh: 5%

Results for CSc1ccc(NC(=O)C(C)N2CCN(C)CC2)cc1 (stereo not drawn) ?
miR-21 FLuc: -3%; Sfp inh: -21%; G9a inh: 45µM*

How did O=C1CCCc2cc(S(=O)(=O)N3CCCC(C(=O)NCc4ccc(Cl)cc4)C3)ccc2N1 (stereo not drawn) do in these assays?
miR-21 FLuc: 21%; G9a inh: -4%[59 µM]; Lamin A splicing: -7%[46 µM]

How did CC(C(=O)NC(=O)NC1CCCCC1)N1CCN(c2ccc(O)cc2)CC1 (stereo not drawn) do in these assays?
G9a inh: 1.3µM*

How did COc1ccc(CCNC(=O)COC(=O)/C=C/c2cccs2)cc1 do in these assays?
ALDH1A1 inh: inconclusive; miR-21 FLuc: 0%; Sfp inh: 8%; G9a inh: 8%; KDM4E inh: inconclusive; Lamin A splicing: 10%[46 µM]

Results for O=c1ccc(-c2n[nH]c(=S)n2-c2ccc(F)c(Cl)c2)n[nH]1 ?
ALDH1A1 inh: 0%; miR-21 FLuc: -1%; Sfp inh: -9%; G9a inh: 3.2µM*; KDM4E inh: -4%; Lamin A splicing: -8%[46 µM]

Results for Fc1ccc(-n2c(-c3cc(C4CC4)[nH]n3)n[nH]c2=S)cc1Cl ?
miR-21 FLuc: -23%; Sfp inh: inconclusive; G9a inh: 1.6µM*; KDM4E inh: -6%

What do the screens show for `S=c1[nH]nc(-c2ccc(Cl)cc2Cl)n1-c1ccc(Cl)cc1`?
miR-21 FLuc: -6%; Sfp inh: -1%

What do the screens show for `CCN(CC)C(=O)c1ccc2c(c1)N(Cc1ccc(C(F)(F)F)cc1)C(=O)c1ccccc1S2`?
miR-21 FLuc: 23%; G9a inh: -14%[59 µM]

What do the screens show for `CCCOc1ccc(/C(O)=C2/C(=O)C(=O)N(CCCn3ccnc3)C2c2ccco2)cc1` (stereo not drawn)?
ALDH1A1 inh: -14%; miR-21 FLuc: -11%; Sfp inh: 10%; KDM4E inh: -1%; Lamin A splicing: 4%

What do the screens show for `O=C1C(=O)N(CCCn2ccnc2)C(c2ccccn2)/C1=C(/O)c1ccccc1` (stereo not drawn)?
ALDH1A1 inh: -2%; miR-21 FLuc: -7%; Sfp inh: 13%; G9a inh: 50µM*; KDM4E inh: -2%; Lamin A splicing: -3%

How did O=C1C(=O)N(CCCn2ccnc2)C(c2cccnc2)/C1=C(/O)c1ccc(F)cc1 (stereo not drawn) do in these assays?
ALDH1A1 inh: -9%; miR-21 FLuc: 1%; Sfp inh: -5%; G9a inh: -8%[59 µM]; KDM4E inh: 12%; Lamin A splicing: 0%

What do the screens show for `C=CCOc1ccc(/C(O)=C2/C(=O)C(=O)N(CCCn3ccnc3)C2c2ccco2)cc1` (stereo not drawn)?
ALDH1A1 inh: inconclusive; miR-21 FLuc: -39%; Sfp inh: 22%; G9a inh: 20µM*; KDM4E inh: 3%

Results for COc1ccccc1NNC(=O)c1cccnc1Oc1ccccc1 ?
ALDH1A1 inh: 14µM*; miR-21 FLuc: -6%; Sfp inh: inconclusive; G9a inh: 7.1µM*; KDM4E inh: -1%

Results for O=C(Cc1cnc2ncnn2c1)N1CCc2c([nH]c3ccccc23)C1c1ccccc1F (stereo not drawn) ?
ALDH1A1 inh: 4.5µM*; miR-21 FLuc: 0%; Sfp inh: -3%; G9a inh: 2%; KDM4E inh: -4%; Lamin A splicing: -22%[46 µM]

What do the screens show for `COc1ccc(N2CCN(C(=O)CSc3nnc4n3C(C)(C)Cc3ccccc3-4)CC2)cc1`?
ALDH1A1 inh: 22µM*; miR-21 FLuc: 17%; Sfp inh: -11%; G9a inh: inconclusive; KDM4E inh: 3%; Lamin A splicing: inconclusive

How did Cc1ccc(Cl)cc1N1CCN(C(=O)CSc2nnc3n2C(C)(C)Cc2ccccc2-3)CC1 do in these assays?
ALDH1A1 inh: inconclusive; miR-21 FLuc: 15%; Sfp inh: 6%; G9a inh: 8.9µM*; KDM4E inh: -1%; Lamin A splicing: inconclusive

What do the screens show for `COC(=O)CSc1nnc2n1C(C)(C)Cc1ccccc1-2`?
ALDH1A1 inh: inconclusive; miR-21 FLuc: 2%; Sfp inh: -4%; G9a inh: 21%; KDM4E inh: -10%; Lamin A splicing: -4%

What do the screens show for `COC/C=C/C1=CC2=CC(=O)C(C)(OC(=O)c3cnc4ccccc4n3)C(=O)C2=CN1C1CCCC1` (stereo not drawn)?
ALDH1A1 inh: -5%[13.5 µM]; Sfp inh: 8%; KDM4E inh: -5%[11.4 µM]; Lamin A splicing: -6%[9.22 µM]

Results for Cc1ccc(NC(=O)CN2C(=O)NC3(CCCCCCC3)C2=O)cc1C ?
G9a inh: 1.3µM*

Results for O=C(CN1C(=O)NC2(CCCCC2)C1=O)Nc1ccc(F)cc1 ?
ALDH1A1 inh: -15%; miR-21 FLuc: -3%; Sfp inh: -1%; G9a inh: -14%; KDM4E inh: 3%; Lamin A splicing: 11%[46 µM]

How did O=C(CN1C(=O)NC2(CCCC2)C1=O)Nc1ccccc1 do in these assays?
miR-21 FLuc: -1%; Sfp inh: 12%; G9a inh: 10%

What do the screens show for `CN(c1ccccc1)S(=O)(=O)c1cccc(NC(=O)CN2C(=O)NC3(CCCC3)C2=O)c1`?
G9a inh: 56µM*

What do the screens show for `CCCC(=O)NC1CC(=O)N(c2ccc3c(c2)OCCO3)C1` (stereo not drawn)?
miR-21 FLuc: 0%; G9a inh: -10%[59 µM]; Lamin A splicing: 11%[46 µM]

How did Fc1ccc2nc(N3CCOCC3)sc2c1 do in these assays?
ALDH1A1 inh: 7%; miR-21 FLuc: -74%; Sfp inh: 3%; G9a inh: -39%; KDM4E inh: 5%
